The values below come from patent US20240034743A9, “TRICYCLIC COMPOUNDS AS EGFR INHIBITORS” (QILU PHARMACEUTICAL CO., LTD., priority 2020, published 2024).

The chains behind the UniProt entries cited, without tags or fusion partners. Where a name states a change or a piece, a line headed by the entry shows the natural chain unless it says otherwise. Residues count along the entry.
UniProt P00533, 25-1210 limits assumed: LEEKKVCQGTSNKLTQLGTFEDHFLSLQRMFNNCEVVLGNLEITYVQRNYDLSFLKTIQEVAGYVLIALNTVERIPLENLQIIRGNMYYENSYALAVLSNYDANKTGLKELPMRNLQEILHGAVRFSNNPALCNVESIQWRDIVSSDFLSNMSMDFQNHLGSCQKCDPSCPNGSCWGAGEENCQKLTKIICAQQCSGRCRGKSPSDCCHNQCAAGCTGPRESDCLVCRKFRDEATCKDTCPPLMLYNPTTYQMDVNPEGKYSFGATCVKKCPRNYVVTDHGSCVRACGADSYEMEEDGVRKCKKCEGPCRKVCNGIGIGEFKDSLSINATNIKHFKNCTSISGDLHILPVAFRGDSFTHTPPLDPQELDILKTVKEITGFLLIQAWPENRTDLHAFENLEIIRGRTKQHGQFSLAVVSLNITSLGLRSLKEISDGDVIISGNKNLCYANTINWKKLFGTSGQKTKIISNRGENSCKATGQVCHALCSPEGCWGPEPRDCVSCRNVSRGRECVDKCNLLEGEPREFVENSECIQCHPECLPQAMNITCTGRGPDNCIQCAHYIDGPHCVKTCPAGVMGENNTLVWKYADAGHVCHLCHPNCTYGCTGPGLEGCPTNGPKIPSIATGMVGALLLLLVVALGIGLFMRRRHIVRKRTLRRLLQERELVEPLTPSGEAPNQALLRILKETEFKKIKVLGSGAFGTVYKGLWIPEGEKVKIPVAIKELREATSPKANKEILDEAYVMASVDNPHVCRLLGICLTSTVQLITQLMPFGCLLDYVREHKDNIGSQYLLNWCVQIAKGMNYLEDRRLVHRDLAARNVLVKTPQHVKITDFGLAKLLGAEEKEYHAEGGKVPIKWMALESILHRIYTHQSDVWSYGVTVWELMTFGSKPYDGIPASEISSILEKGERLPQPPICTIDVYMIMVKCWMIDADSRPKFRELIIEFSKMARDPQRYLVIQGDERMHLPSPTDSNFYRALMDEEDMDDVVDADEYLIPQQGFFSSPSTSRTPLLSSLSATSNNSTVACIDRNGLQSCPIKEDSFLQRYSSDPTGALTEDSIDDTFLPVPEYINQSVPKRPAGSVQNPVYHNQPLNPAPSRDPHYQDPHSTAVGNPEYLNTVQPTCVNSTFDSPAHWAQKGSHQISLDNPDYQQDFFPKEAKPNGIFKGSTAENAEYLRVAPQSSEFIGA
UniProt P00533, 25-1210 T790M/C797S/L858R limits assumed: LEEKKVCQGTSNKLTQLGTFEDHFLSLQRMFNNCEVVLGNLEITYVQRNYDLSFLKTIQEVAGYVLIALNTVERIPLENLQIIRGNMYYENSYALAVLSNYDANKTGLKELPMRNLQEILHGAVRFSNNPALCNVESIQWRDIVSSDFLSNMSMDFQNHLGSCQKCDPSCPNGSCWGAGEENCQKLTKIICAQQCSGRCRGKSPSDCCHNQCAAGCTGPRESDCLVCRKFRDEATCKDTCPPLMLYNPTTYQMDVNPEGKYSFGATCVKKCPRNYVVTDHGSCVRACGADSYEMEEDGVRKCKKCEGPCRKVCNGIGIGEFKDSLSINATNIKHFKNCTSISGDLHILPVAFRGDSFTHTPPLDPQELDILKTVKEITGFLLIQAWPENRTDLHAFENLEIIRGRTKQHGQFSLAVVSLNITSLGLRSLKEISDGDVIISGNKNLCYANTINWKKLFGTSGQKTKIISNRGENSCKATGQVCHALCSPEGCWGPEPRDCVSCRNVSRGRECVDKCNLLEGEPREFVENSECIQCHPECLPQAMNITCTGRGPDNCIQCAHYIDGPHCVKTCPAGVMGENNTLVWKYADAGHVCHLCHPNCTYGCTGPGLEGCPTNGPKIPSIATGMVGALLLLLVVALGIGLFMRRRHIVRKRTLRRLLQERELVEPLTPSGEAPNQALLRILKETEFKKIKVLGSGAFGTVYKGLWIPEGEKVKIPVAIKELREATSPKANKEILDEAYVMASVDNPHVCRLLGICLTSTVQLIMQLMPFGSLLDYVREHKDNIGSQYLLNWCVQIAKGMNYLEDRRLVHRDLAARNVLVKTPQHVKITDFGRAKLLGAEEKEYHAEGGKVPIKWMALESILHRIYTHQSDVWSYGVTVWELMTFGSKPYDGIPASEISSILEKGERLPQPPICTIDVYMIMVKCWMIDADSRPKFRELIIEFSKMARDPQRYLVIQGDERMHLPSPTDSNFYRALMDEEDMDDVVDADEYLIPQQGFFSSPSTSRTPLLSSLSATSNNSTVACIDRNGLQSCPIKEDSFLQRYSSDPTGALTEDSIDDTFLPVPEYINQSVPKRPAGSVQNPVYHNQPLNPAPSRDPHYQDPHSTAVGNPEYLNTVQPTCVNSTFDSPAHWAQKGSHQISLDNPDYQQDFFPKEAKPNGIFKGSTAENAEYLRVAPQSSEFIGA

One assay has as its target EGFR WT (wild type EGFR) (Homo sapiens (Human), UniProt P00533). Briefly: In vitro enzymatic TR-FRET (HTRF KinEASE-TK) kinase assay, EGFR WT. Format: biochemical. As to conditions: read-out: EGFR (WT) IC50, kinase activity. The method, then: (§1) (I) In Vitro Enzymatic Experiment for EGFR WT and EGFR L858R/T790M/C797S
(§2) In the assay, the inhibition effect of the compound on the kinase activity of EGFR WT (wild type EGFR) and EGFR L858R/T790M/C797S was tested by adopting a time-resolved fluorescence resonance energy transfer (TR-FRET) method, and half maximal inhibitory concentration IC50 of the compound on the kinase activity of EGFR was obtained.
(§3) EGFR recombinase and EGFR L858R/T790M/C797S recombinase, purchased from Signalchem.
(§4) HTRF KinEASE-TK kit, purchased from Cisbio.
(§5) DTT, MnCl2, and MgCl2, purchased from Sigma.
(§6) ATP, purchased from Promega.
(§7) Brigatinib, purchased from Selleck.
(§8) 1) 1× working solution was prepared: 5 mM MgCl2; 1 mM DTT; 1 mM MnCl2 and 1× kinase buffer (in kit).
(§9) 2) […] of gradiently-diluted compound was transferred to a 384-well plate using Echo 550 (Labcyte).
(§10) 3) 5 μL of 2× EGFR WT or EGFR L858R/T790M/C797S recombinase solution was added to the 384-well plate, and the plate was incubated at room temperature for 10 min.
(§11) 4) 5 μL of 2× TK-substrate-biotin substrate solution (containing ATP) was added to the 384-well plate, and the plate was incubated at room temperature for 40 min. […]
(§12) 6) The fluorescence signal values at 615 nm and 665 nm were measured for each well using an Envision microplate reader (PerkinElmer).
(§13) 7) The ratio of fluorescence signal values at 665 nm and 615 nm was calculated for each well. […]

For another assay, the target named is EGFR L858R/T790M/C797S (Homo sapiens (Human), UniProt P00533, C797S/L858R/T790M). Briefly: In vitro enzymatic TR-FRET (HTRF KinEASE-TK) kinase assay, EGFR L858R/T790M/C797S. The class given is biochemical. As to conditions: read-out: EGFR (L858R/T790M/C797S) IC50, kinase activity. On the procedure: as §1, §2, §3, §4, §5, §6, §7, §8, §9, §10, §11, §12, §13

A further assay relates to A431 cells (EGFR WT). Briefly: A431 cell proliferation inhibition assay (CellTiter-Glo). The class given is cell-based. As to conditions: read-out: A431 EGFR WT IC50, 72 h. The method, then:
A431 Cell Proliferation Inhibition Assay
In the assay, the inhibition effect of the compounds on the proliferation of A431 cells was tested by adopting a CellTiter-Glo method, and the concentration IC50 of the compound for inhibiting half maximal growth of cells was obtained.
A431 cells, purchased from ATCC.
DMEM medium, fetal bovine serum (FBS), and Penicillin-Streptomycin, purchased from GIBCO.
as §7
(§14) CellTiter-Glo reagent, purchased from Promega.
1) A431 cells were seeded in a 384-well plate at a density of 800 cells/well with 30 μL/well, and the plate was cultured in a cell incubator for 24 h (37° C., 5% CO2).
(§15) 2) Day 0: […] of gradiently-diluted compounds to be tested with a final concentration of DMSO of 0.1% was added to plate using Echo, and the plate was incubated in a cell incubator for 72 h (37° C., 5% CO2). […] of DMSO was added into each well in blank control group.
(§16) 3) Day 3: 30 μL Cell Titer-Glo reagent was added to each well, and the plate was in the dark under room temperature for 30 min.
(§17) 4) The chemiluminescent signal was detected by an Envision plate reader (PerkinElmer).
(§18) 5) Data analysis was performed using GraphPad Prism software to give the IC50 for compounds.

Assay [1] concerns Ba/F3_Del19/T790M/C797S cells. Briefly: Ba/F3_Del19/T790M/C797S cell proliferation inhibition assay (CellTiter-Glo). The class given is cell-based. As to conditions: read-out: Ba/F3 (Del19/T790M/C797S) IC50, 72 h. The method, then:
Ba/F3_Del19/T790M/C797S Cell Proliferation Inhibition Assay
In the assay, the inhibition effect of the compounds on the proliferation of Ba/F3_Del19/T790M/C797S cells was tested by adopting a CellTiter-Glo method, and the concentration IC50 of the compound for inhibiting half maximal growth of cells was obtained.
Ba/F3_Del19/T790M/C797S, purchased from Kyinno Biotechnology Co., Ltd. 1640 medium, fetal bovine serum (FBS), Penicillin-Streptomyces, and GlutaMAX-I Supplement, purchased from GIBCO.
as §7, §14
1) Ba/F3_Del19/T790M/C797S cells were seeded in a 384-well plate at a density of 700 cells/well with 30 μL/well.
as §15, §16, §17
Data analysis was performed using GraphPad Prism 6 software to give the IC50 for compounds.

The test system of assay [2] is Ba/F3_L858R/T790M/C797S cells. As to the kind of experiment: Ba/F3_L858R/T790M/C797S cell proliferation inhibition assay (CellTiter-Glo). Format: cell-based. As to conditions: read-out: Ba/F3 (L858R/T790M/C797S) IC50, 72 h. On the procedure: Ba/F3_L858R/T790M/C797S Cell Proliferation Inhibition Assay
In the assay, the inhibition effect of the compounds on the proliferation of Ba/F3_L858R/T790M/C797S cells was tested by adopting a CellTiter-Glo method, and the concentration IC50 of the compound for inhibiting half maximal growth of cells was obtained.
Ba/F3_L858R/T790M/C797S cells were constructed by Pharmaron Beijing Co., Ltd.
1640 medium, fetal bovine serum (FBS), Penicillin-Streptomyces, and GlutaMAX-I Supplement, purchased from GIBCO.
as §7, §14
1) Ba/F3_L858R/T790M/C797S cells were seeded in a 384-well plate at a density of 700 cells/well with 30 μL/well.
as §15, §16, §17, §18

pIC50: −log10 of the molar value. Where only a bound is given, the exact number is not on record here.

As for `COc1cc2c(cc1Nc1ncc(Br)c(Nc3ccccc3N(C(C)C)S(C)(=O)=O)n1)-c1cnn(C)c1CCN2C`, the pIC50 on EGFR WT (wild type EGFR) is 7.30 to 8.00; at EGFR L858R/T790M/C797S, 8.00 to 9.00; in the assay with A431 cells (EGFR WT), 6.00 to 7.00; in assay [1] it was 7.30 to 8.00; in assay [2] it was 7.30 to 8.00.
For the compound `COc1cc2c(cc1Nc1ncc(Br)c(Nc3ccc4nccnc4c3P(C)(C)=O)n1)-c1cnn(C)c1CCN2C1CCCN(C)C1` (single isomer, unassigned) [117A], the pIC50 was 7.30 to 8.00 in the assay on A431 cells (EGFR WT), greater than 8.00 in assay [1] and greater than 8.00 in assay [2].
As for `COc1cc2c(cc1Nc1ncc(Br)c(Nc3ccc4nccnc4c3P(C)(C)=O)n1)-c1cnn(C)c1CCN2C1CCCN(C)C1` (single isomer, unassigned) [117B], the pIC50 in the assay with A431 cells (EGFR WT) was 7.00 to 7.30; in assay [1], greater than 8.00; in assay [2], 7.30 to 8.00.
